Assay results reported in article PMC9234963, “Optimizing Shape Complementarity Enables the Discovery of Potent Tricyclic BCL6 Inhibitors” (Journal of Medicinal Chemistry, 2022).

Assays:
[1] = target: T1, human BCL6 BTB domain (Homo sapiens, UniProt P41182); details: for LE: ligand efficiency, 1.4*(pIC50)/HAC from TR-FRET; for LLE: lipophilic ligand efficiency from TR-FRET pIC50 and MoKa logD7.4; for fold potency improvement over 5a: compared with 5a; for BCL6 TR-FRET mean pIC50: mean of replicates
[2] = target: T1, human BCL6 BTB domain; assay: biochemical; details: BCL6 TR-FRET IC50 individual replicates, single replicates; 10 nM BCL6 for early examples, else 1 nM
[3] = read-out: BCL6 TR-FRET IC50, geometric mean of replicates
[4] = read-out: BCL6 TR-FRET IC50 individual replicates, single replicates, 10 nM BCL6 for early examples, else 1 nM

Row | SMILES | LE [1] | LLE [1] | also measured
1 | CCNc1cc(=O)[nH]c2ccc(Nc3ccnc(Cl)c3C#N)cc12 [Compound 2] | 0.34 and 0.3432 | 3.48 and 3.5 and 3.484 | 
2 | Cn1c(=O)cc(NC(C)(C)c2ncc(C3CC3)cn2)c2cc(Nc3ccnc(Cl)c3C#N)ccc21 [Compound 3] | 0.30 and 0.3033 | 4.58 and 4.6 and 4.583 | 
3 | CCNc1c(C)c(=O)n(C)c2ccc(Nc3ccnc(Cl)c3C#N)cc12 [Compound 4, 2-Chloro-4-((4-(ethylamino)-1,3-dimethyl-2-oxo-1,2-dihydroquinolin-6-yl)amino)nicotinonitrile] | 0.28 and 0.2829 | 2.15 and 2.2 and 2.153 | fold reduction in biochemical potency ([1]; 3-methyl compound 4 compared with 2): 4 fold
4 | N#Cc1c(Nc2ccc3[nH]c(=O)c4c(c3c2)NCCC4)ccnc1Cl [Compound 5a, 2-Chloro-4-((5-oxo-1,2,3,4,5,6-hexahydrobenzo[h][1,6]naphthyridin-9-yl)amino)nicotinonitrile] | 0.29 and 0.2919 | 3.11 and 3.1 and 3.113 | 
5 | CC1CCc2c(c3cc(Nc4ccnc(Cl)c4C#N)ccc3n(C)c2=O)N1 (stereo not shown) [Compound 5b, 2-Chloro-4-((2,6-dimethyl-5-oxo-1,2,3,4,5,6-hexahydrobenzo[h][1,6]-naphthyridin-9-yl)amino)nicotinonitrile] | 0.29 and 0.2946 | 2.88 and 2.9 and 2.882 | fold potency improvement over 5a [1]: > 3 fold
6 | CC1COc2c(c3cc(Nc4ccnc(Cl)c4C#N)ccc3n(C)c2=O)N1 (stereo not shown) [Compound 6, 2-Chloro-4-((2,6-dimethyl-5-oxo-2,3,5,6-tetrahydro-1H-[1,4]oxazino[2,3-c]quinolin-9-yl)amino)nicotinonitrile] | 0.30 and 0.3047 | 3.78 and 3.8 and 3.776 | fold potency improvement over 5a [1]: > 3 fold
7 | C[C@H]1COCc2c(c3cc(Nc4ccnc(Cl)c4C#N)ccc3n(C)c2=O)N1 [Compound 8, (S)-2-Chloro-4-((2,7-dimethyl-6-oxo-1,2,3,5,6,7-hexahydro-[1,4]oxazepino[6,5-c]quinolin-10-yl)amino)nicotinonitrile] | 0.28 and 0.2825 | 3.95 and 4.0 | 
8 | Cn1c(=O)c2c(c3cc(Nc4ccnc(Cl)c4C#N)ccc31)NCCCO2 [Compound 10, 2-Chloro-4-((7-methyl-6-oxo-1,2,3,4,6,7-hexahydro-[1,4]oxazepino[2,3-c]quinolin-10-yl)amino)nicotinonitrile] | 0.25 and 0.2452 | 2.83 and 2.8 and 2.828 | 
9 | Cn1c(=O)c2c(c3cc(Nc4ccnc(Cl)c4C#N)ccc31)NC(C1CC1)CCO2 (stereo not shown) [Compound 11a, 2-Chloro-4-((2-cyclopropyl-7-methyl-6-oxo-1,2,3,4,6,7-hexahydro-[1,4]oxazepino[2,3-c]quinolin-10-yl)amino)nicotinonitrile] |  |  | BCL6 TR-FRET mean pIC50 [1]: 7.11; pIC50 [1, 3]: 7.11; pIC50 [1, 4]: 7.12; pIC50 [2]: 7.16 and 7.03
10 | CCC1CCOc2c(c3cc(Nc4ccnc(Cl)c4C#N)ccc3n(C)c2=O)N1 (stereo not shown) [Compound 11b, 2-Chloro-4-((2-ethyl-7-methyl-6-oxo-1,2,3,4,6,7-hexahydro-[1,4]oxazepino[2,3-c]quinolin-10-yl)amino)nicotinonitrile] | 0.30 and 0.2999 | 3.21 and 3.2 and 3.213 | 
11 | Cn1c(=O)c2c(c3cc(Nc4ccnc(Cl)c4C#N)ccc31)NC(C1CCC1)CCO2 (stereo not shown) [Compound 11c, 2-Chloro-4-((2-cyclobutyl-7-methyl-6-oxo-1,2,3,4,6,7-hexahydro-[1,4]oxazepino[2,3-c]quinolin-10-yl)amino)nicotinonitrile] | 0.24 and 0.2423 | 2.07 and 2.1 and 2.065 | 
12 | CC(C)C1CCOc2c(c3cc(Nc4ccnc(Cl)c4C#N)ccc3n(C)c2=O)N1 (stereo not shown) [Compound 11d, 2-Chloro-4-((2-isopropyl-7-methyl-6-oxo-1,2,3,4,6,7-hexahydro-[1,4]oxazepino[2,3-c]quinolin-10-yl)amino)nicotinonitrile] | 0.26 and 0.2569 | 2.21 and 2.206 | 
13 | Cn1c(=O)c2c(c3cc(Nc4ccnc(Cl)c4C#N)ccc31)NC(C(F)F)CCO2 (stereo not shown) [Compound 11e, 2-Chloro-4-((2-(difluoromethyl)-7-methyl-6-oxo-1,2,3,4,6,7-hexahydro-[1,4]oxazepino[2,3-c]quinolin-10-yl)amino)nicotinonitrile] | 0.27 and 0.2657 | 3.69 and 3.7 and 3.694 | 
14 | Cn1c(=O)c2c(c3cc(Nc4ccnc(Cl)c4C#N)ccc31)N[C@@H](C1CC1)CCO2 [Compound 12a, (R)-2-Chloro-4-((2-cyclopropyl-7-methyl-6-oxo-1,2,3,4,6,7-hexahydro-[1,4]oxazepino[2,3-c]quinolin-10-yl)amino)nicotinonitrile] |  |  | pIC50 [2]: 7.56 and 7.57 and 7.46 and 7.20 and 7.37 and 7.27
15 | Cn1c(=O)c2c(c3cc(Nc4ccnc(Cl)c4C#N)ccc31)N[C@H](C1CC1)CCO2 [Compound 12b, (S)-2-Chloro-4-((2-cyclopropyl-7-methyl-6-oxo-1,2,3,4,6,7-hexahydro-[1,4]oxazepino[2,3-c]quinolin-10-yl)amino)nicotinonitrile] |  |  | BCL6 TR-FRET mean pIC50 [1]: 5.95; pIC50 [1, 3]: 5.95 and 5.96; pIC50 [1, 4]: 5.95; pIC50 [2]: 6.07 and 5.83
16 | CC1CC(C)(C)Oc2c(c3cc(Nc4ccnc(Cl)c4C#N)ccc3n(C)c2=O)N1 (stereo not shown) [Compound 13b, 2-Chloro-4-((2,4,4,7-tetramethyl-6-oxo-1,2,3,4,6,7-hexahydro-[1,4]oxazepino[2,3-c]quinolin-10-yl)amino)nicotinonitrile] | 0.23 | 1.3 | 
17 | CC1Nc2c(c(=O)n(C)c3ccc(Nc4ccnc(Cl)c4C#N)cc23)OCC12CC2 (stereo not shown) [Compound 13d, 2-Chloro-4-((2′,7′-dimethyl-6′-oxo-1′,2′,6′,7′-tetrahydro-4′H-spiro[cyclopropane-1,3′-[1,4]oxazepino[2,3-c]quinolin]-10′-yl)amino)nicotinonitrile] | 0.27 and 0.2706 | 2.9 and 2.899 | 

pIC50: −log10 of the molar value. “And” between values parts separate entries of the source, which are not always exact repeats. Equal entries are not always repeated. Where two headings read alike, the source gives them in different places.
